Laboratory results reported in PMC9574855 (Journal of Medicinal Chemistry, 2022).

Tested on: MHV-nLuc virus
Conditions: DBT cells

CN(C)CC#Cc1ccc2[nH]c3c(c2c1)-c1nc(N)ncc1CCC3 [compound 17, 11-(3-(Dimethylamino)prop-1-yn-1-yl)-5,6,7,8-tetrahydropyrimido[4′,5′:3,4]cyclohepta[1,2-b]indol-2-amine]
inhibition of viral replication (MHV-nLuc), in words: inhibited viral replication
